Results as given in ChEMBL document CHEMBL3882389, “Phosphatidylinositol 3-Kinase Inhibitors for the Treatment of Lymphoproliferative Malignancies” (2014).

Amino acid sequences for entries named in this document (tags omitted). A change or cut given only in a name is not applied to a line headed by its entry.
UniProt P27986: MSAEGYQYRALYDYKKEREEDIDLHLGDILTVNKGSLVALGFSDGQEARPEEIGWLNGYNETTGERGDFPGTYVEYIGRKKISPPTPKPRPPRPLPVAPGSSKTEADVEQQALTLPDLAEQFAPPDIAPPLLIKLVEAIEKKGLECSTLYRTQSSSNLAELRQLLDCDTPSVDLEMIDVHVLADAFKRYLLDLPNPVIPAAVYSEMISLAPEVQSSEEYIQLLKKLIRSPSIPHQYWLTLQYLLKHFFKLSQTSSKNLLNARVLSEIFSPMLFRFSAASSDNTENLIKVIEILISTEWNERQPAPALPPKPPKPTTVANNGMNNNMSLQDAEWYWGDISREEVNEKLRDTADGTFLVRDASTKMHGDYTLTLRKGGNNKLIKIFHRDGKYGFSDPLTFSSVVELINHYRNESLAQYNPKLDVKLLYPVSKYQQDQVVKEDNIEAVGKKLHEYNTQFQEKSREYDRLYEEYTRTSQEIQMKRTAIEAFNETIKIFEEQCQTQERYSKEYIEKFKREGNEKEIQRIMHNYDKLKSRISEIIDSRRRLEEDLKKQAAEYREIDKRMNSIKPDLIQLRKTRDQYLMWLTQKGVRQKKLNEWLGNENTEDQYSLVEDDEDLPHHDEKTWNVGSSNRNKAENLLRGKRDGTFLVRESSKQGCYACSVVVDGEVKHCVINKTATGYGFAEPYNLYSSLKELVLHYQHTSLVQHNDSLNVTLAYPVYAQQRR
UniProt P42338: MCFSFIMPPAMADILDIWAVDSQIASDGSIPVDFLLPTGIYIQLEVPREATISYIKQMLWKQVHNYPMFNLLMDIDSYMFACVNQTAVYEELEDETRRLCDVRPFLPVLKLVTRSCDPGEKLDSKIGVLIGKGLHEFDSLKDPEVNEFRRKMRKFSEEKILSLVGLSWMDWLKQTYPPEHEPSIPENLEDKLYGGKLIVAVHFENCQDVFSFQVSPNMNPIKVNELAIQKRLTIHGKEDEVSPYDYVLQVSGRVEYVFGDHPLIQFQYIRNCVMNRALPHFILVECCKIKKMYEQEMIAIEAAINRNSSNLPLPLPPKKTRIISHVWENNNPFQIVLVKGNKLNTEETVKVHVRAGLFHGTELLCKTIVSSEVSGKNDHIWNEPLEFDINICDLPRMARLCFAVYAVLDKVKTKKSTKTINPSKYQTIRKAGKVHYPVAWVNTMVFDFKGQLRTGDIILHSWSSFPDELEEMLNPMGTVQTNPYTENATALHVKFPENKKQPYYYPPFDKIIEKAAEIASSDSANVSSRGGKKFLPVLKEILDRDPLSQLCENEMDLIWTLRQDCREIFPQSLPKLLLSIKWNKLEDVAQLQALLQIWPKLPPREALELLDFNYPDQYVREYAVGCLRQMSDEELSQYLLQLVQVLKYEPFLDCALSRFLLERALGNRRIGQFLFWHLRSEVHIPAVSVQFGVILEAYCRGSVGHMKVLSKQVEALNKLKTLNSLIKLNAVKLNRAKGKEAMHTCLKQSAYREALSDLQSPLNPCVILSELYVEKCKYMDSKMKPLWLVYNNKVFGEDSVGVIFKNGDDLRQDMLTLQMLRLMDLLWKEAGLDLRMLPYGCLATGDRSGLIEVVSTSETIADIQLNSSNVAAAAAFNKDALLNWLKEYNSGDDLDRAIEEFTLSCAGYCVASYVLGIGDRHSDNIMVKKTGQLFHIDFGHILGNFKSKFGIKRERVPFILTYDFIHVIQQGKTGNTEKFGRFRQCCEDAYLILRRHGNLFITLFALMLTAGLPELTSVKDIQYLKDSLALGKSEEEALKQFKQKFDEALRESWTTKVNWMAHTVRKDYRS
UniProt P48736: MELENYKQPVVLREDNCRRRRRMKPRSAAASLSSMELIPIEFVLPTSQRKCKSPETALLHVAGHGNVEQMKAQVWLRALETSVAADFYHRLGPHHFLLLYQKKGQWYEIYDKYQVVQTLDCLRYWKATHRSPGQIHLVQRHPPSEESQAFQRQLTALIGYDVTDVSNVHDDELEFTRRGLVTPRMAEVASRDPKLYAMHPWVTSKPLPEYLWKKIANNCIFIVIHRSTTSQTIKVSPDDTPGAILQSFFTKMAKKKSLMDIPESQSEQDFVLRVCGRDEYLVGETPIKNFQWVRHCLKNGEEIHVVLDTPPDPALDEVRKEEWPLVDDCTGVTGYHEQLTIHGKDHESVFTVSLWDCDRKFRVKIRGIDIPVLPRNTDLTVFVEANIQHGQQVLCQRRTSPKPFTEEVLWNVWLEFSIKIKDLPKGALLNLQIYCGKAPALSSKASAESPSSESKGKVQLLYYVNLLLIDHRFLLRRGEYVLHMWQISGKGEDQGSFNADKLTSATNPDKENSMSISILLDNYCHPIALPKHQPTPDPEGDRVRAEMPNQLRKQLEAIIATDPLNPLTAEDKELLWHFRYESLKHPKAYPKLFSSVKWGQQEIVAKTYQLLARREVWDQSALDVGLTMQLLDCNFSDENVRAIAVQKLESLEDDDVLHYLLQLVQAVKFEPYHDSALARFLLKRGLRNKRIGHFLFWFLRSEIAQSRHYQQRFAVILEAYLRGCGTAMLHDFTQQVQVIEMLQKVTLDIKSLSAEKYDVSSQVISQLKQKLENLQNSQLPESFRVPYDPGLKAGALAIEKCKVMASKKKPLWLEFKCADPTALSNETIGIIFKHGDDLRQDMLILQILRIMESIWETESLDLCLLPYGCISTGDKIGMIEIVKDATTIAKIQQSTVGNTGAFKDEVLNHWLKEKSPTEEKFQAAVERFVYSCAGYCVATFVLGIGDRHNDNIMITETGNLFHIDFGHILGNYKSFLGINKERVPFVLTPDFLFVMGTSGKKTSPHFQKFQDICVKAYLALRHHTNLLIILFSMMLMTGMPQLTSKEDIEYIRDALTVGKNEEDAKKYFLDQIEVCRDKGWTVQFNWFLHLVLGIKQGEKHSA
UniProt P42336: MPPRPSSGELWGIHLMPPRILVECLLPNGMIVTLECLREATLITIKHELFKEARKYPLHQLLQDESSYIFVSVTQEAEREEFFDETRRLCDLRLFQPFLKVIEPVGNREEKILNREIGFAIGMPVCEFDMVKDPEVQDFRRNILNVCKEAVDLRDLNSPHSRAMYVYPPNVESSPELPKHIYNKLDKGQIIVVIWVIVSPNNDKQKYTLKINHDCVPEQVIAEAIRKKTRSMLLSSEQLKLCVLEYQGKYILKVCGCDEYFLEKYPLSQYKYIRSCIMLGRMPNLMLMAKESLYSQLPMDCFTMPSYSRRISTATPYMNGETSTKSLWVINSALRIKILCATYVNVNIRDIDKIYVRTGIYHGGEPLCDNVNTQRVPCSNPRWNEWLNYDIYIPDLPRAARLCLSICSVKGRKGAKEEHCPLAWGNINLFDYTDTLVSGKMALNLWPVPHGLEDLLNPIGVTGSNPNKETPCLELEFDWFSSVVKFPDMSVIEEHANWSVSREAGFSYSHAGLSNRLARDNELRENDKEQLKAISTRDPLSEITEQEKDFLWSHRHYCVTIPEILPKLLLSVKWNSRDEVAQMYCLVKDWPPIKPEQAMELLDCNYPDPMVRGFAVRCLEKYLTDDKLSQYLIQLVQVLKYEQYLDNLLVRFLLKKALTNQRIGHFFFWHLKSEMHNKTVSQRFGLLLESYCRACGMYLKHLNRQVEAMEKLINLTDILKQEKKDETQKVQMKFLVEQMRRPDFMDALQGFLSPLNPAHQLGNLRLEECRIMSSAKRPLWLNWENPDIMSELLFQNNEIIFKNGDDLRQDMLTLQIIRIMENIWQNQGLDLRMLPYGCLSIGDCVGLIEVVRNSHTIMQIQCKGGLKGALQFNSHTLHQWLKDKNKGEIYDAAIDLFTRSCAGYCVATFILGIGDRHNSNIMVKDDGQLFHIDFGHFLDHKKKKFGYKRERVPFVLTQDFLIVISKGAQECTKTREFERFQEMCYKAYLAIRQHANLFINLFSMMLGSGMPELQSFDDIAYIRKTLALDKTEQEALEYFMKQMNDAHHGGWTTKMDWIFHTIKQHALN
UniProt O00459: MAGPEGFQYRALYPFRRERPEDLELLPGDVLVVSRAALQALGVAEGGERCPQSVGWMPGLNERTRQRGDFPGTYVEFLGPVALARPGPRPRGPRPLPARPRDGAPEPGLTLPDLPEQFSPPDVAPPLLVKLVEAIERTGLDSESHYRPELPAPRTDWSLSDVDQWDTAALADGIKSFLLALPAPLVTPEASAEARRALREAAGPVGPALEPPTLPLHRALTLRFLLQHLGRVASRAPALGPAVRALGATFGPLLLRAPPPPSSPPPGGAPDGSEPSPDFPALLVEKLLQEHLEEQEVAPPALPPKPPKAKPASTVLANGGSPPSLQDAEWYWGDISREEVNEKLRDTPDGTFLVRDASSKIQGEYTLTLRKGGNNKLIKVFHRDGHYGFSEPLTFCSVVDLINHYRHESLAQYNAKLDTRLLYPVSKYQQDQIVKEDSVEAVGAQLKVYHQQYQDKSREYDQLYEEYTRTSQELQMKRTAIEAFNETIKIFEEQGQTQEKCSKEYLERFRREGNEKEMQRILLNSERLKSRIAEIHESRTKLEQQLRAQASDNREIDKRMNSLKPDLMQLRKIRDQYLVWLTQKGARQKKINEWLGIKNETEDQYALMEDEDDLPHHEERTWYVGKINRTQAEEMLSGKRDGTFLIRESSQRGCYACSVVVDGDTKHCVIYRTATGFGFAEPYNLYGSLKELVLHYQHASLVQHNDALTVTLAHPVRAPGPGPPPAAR
UniProt Q8WYR1: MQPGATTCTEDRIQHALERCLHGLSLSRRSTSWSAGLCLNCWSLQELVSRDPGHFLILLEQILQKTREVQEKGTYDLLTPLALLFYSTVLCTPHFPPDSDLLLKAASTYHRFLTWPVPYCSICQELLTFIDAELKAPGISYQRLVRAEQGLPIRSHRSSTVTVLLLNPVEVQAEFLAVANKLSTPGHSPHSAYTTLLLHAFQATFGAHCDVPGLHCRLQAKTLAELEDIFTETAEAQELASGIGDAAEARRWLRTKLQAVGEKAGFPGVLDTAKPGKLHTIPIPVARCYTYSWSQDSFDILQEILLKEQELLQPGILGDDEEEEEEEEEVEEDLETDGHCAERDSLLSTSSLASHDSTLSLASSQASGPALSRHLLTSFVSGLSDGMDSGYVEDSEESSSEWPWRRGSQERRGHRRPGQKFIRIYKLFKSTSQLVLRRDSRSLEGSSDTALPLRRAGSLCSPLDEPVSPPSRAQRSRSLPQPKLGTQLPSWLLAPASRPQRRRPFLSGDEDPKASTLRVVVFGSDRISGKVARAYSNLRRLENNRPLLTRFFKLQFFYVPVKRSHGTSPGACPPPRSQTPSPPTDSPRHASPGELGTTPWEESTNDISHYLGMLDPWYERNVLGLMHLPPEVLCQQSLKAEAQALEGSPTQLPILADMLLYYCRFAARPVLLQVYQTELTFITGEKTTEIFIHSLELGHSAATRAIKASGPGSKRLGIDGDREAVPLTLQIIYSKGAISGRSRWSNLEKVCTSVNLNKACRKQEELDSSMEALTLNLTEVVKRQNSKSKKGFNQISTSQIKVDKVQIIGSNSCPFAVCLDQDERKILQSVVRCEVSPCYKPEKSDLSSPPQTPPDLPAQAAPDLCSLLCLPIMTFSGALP

What was measured:
[1] = biological target: T1, PI3-kinase class I (Homo sapiens) (UniProt P27986+P42338+P48736+P42336+O00459+O00329+Q8WYR1+Q92569); assay: Inhibition of PI3K (unknown origin) assessed as reduction in phosphorylation of pAKT; assay type: protein-complex assay
[2] = biological target: T1, PI3-kinase class I (Homo sapiens); assay: Inhibition of PI3K (unknown origin) assessed as reduction in phosphorylation of pEBP1; assay type: protein-complex assay

- inhibition [1]: Active
- inhibition [2]: Active
Compound: COc1ccc(Cl)c(Nc2nc3ccccc3nc2NS(=O)(=O)c2cccc(NC(=O)C(C)(C)N)c2)c1 [PILARALISIB]

Active and inactive are the calls of the source. No cut-off for these calls is given here.
